In patent US5700819A, “2-substituted benzothiazole derivatives and prophylactic and therapeutic agents for the treatment of diabetic complications” (Grelan Pharmaceutical Co., Ltd., priority 1994, dated 1997):

Biological target: T1, Aldose reductase (Sus scrofa, UniProt P80276)
T1 construct: Aldose reductase samples were prepared from porcine lens; from tissue; host or cells: porcine lens
Assay: Aldose Reductase Inhibition
Assay type: biochemical
Settings: porcine lens aldose reductase; DL-glyceraldehyde 3 mM, NADPH 0.1 mM, pH 6.2, 37° C.
Procedure: Aldose reductase samples were prepared from porcine lens according the method by S. Hayman et al., (Journal of Biological Chemistry, 240, p. 877-882 (1965)). In brief, lens of porcine eyes were frozen (-80° C.) until employed. These lenses were homogenized with distilled water and then centrifuged at 10,000×g for 15 minutes. The supernatant was fractionated with 0 to 40% ammonium sulfate and centrifuged at 10,000×g for 10 minutes. The resultant supernatant was dialyzed overnight against 0.05M sodium chloride. The dialyzed solution was used as an aldose reductase sample. […] The mixtures were incubated at 37° C. for 2 minutes for reaction and changes in the absorbance at 340 nm were read using an auto-analyzer (Hitachi Corporation, Model 7070, Japan). The change in the absorbance of a mixed solution including 1% DMSO instead of sample compounds was expresses as 100%. […]

Row | IC50 | SMILES
1 | 21 nM | O=C(O)CN(CCc1ccccc1)C(=O)CCc1nc2c(F)c(F)cc(F)c2s1 [Example 6-ii), N-[3-(4,5,7-trifluorobenzothiazol-2-yl)propionyl]-N-phenethylglycine]
2 | 11 nM | CN(CC(=O)O)C(=S)CCc1nc2c(F)c(F)cc(F)c2s1 [Example 7-ii), N-[3-(4,5,7-trifluorobenzothiazol-2-yl)-1-thioxopropyl]-N-methylglycine]
